In this assay the target is T1, PfDHODH (dihydroorotate dehydrogenase) (Plasmodium falciparum, UniProt Q08210).
T1 construct: gene PFF0160c; amino acids 169–569
Description: DCIP reduction enzyme assay with recombinant PfDHODH. It counts as biochemical.

Chains of the proteins cited; added tags and fusions are not shown. Residues count along the entry.
UniProt Q08210, 169-569: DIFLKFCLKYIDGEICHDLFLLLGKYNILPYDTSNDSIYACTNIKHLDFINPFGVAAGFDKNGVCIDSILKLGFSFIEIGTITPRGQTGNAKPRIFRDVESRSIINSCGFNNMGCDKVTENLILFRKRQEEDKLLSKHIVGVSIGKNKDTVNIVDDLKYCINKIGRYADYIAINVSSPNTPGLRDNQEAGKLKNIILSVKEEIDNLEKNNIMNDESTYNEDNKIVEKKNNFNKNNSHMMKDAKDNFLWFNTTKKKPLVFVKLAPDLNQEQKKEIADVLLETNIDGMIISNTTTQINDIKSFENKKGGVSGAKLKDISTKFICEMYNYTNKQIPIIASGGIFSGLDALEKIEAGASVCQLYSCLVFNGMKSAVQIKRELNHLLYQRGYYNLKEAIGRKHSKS

One may read the IC50 as the point on the concentration scale where inhibition reaches its midpoint. Regarding `Cc1cc(Nc2ccc3ccccc3c2)n2ncnc2n1` [DSM-1], the IC50 is 441 nM.
